Results published in US6042822A, “Interferon polymer conjugates” (Enzon, Inc., priority 1999, dated 2000).

Experiments:
[1] = test system: EMC virus challenging A549 human lung carcinoma cells; assay: CPE assay / viral protection assay; type: cell-based; conditions: for ACTIVITY (CPE) % OF CONTROL: Table 1, IFN-PEG12,000, no surfactant; for VIRAL PROTECTION ASSAY IC50 / ACTIVITY (%): Table 2; for ACTIVITY (%): CPE assay, EMC virus, A549 cells; for CPE ACTIVITY (% CONTROL): Table 3, retained activity; for % ACTIVITY / IC50: Table 5; for IC50: N = 3 (native IFNα N = 6)
Procedure: In these examples, additional preparations of PEG12,000 -rαIFN were prepared as described previously except that no surfactant was used. Following the conjugation reactions, the samples were tested for retained activity and PEG number.
(§1) In this example, the product of Example 3, (SDS-2-PEG-5,000 rαIFN), 2-PEG5,000 rαIFN made in the absence of a surfactant and unconjugated rαIFN were tested. Activity was determined using a CPE assay with EMC virus challenging A549 human lung carcinoma cells. Circulating life was determined using an average value obtained from the blood of 3 rats in a group receiving 1 million units, with time points taken over 7 days.
ASSAY: CPE Assay using serum samples in an EMC virus and
A549 human lung carcinoma.

[2] = Hydroxylamine sensitivity (conjugate converted to IFN); type: physicochemical; conditions: conjugation at higher pH
[3] = Specific activity (MTT-CPE assay); type: cell-based; conditions: conjugation at higher pH
Procedure: The purified conjugates obtained at the different pHs were evaluated for their biological activity, hydroxylamine sensitivity and distribution of positional isomers. Biological activity was determined by specific activity (MTT-CPE assay).
Table 7 summarizes the specific bioactivity as determined using the MTT-CPE bioassay for IFN and the amount of IFN released upon treatment with 0.5M hydroxylamine for 2 hours at 25° C. for the different conjugate products. These findings confirm that the differences seen in FIG. 1 can also be related to different biological characteristics of the products.

[4] = Circulating half life in rats (Example 9); type: in vivo, rat; conditions: 3 rats, 1 million units, time points over 7 days
Procedure: as §1

[5] = Pharmacokinetics after subcutaneous administration (Table 4 protocol); type: in vivo; conditions: Sprague Dawley rat, s.c., 10 × 10^6 UN IFN/rat, serum

Example 7: PEG12,000-rαIFN prepared without surfactant; PEG # 1.3
ACTIVITY (CPE) % OF CONTROL [1]: 26%

Example 8: PEG12,000-rαIFN prepared without surfactant; PEG # 1.0
hydroxylamine resistance in words [2]: more resistant to hydroxylamine
bioactivity in words [3]: less bioactive
ACTIVITY (CPE) % OF CONTROL [1]: 24%

IFN-PEG5,000: 2-PEG5,000 rαIFN made in the absence of a surfactant
VIRAL PROTECTION ASSAY IC50 [1]: 0.004 ng/mL
ACTIVITY (%) [1]: 30%
CPE ACTIVITY (% CONTROL) [1]: 35%
% ACTIVITY [1]: 35%
IC50 [1]: 0.004 ng/mL
CIRCULATING HALF LIFE α PHASE [4]: 6.8 h

Example 3: 2-PEG5,000 rαIFN fraction of the conjugate prepared with SDS
VIRAL PROTECTION ASSAY IC50 [1]: 0.0022 ng/mL
ACTIVITY (%) [1]: 69%
CPE ACTIVITY (% CONTROL) [1]: 69%
% ACTIVITY [1]: 69%
IC50 [1]: 0.0022 ± 0.0005 ng/mL
CIRCULATING HALF LIFE α PHASE [4]: 5.8 h

NATIVE IFNα: unconjugated recombinant αIFN-2b (rαIFN), a product of the Schering-Plough Corporation
VIRAL PROTECTION ASSAY IC50 [1]: 0.0015 ng/mL
ACTIVITY (%) [1]: 100%
% ACTIVITY [1]: 100%
IC50 [1]: 0.00152 ng/mL
Cmax [5]: 60,000 IU/ml
T1/2 α PHASE [5]: 0.17 h
CIRCULATING HALF LIFE α PHASE [4]: 0.17 h

D: 2PEG-rαIFN conjugate, PEG molecular weight 12,000
CPE ACTIVITY (% CONTROL) [1]: 26%

Example 6: PEG12,000-rαIFN prepared without surfactant; PEG # 1.2
ACTIVITY (CPE) % OF CONTROL [1]: 26%

C: 2PEG-rαIFN conjugate, PEG molecular weight 12,000
CPE ACTIVITY (% CONTROL) [1]: 26%
% ACTIVITY [1]: 26%
IC50 [1]: 0.0058 ± 0.0022 ng/mL
